Drawing on PubChem BioAssay AID624389 (National Center for Advancing Translational Sciences (NCATS), 2012), this text covers Potency for one molecule.

Amino acid sequences for entries named in this document (tags omitted).
UniProt P14618, whole entry, looked up: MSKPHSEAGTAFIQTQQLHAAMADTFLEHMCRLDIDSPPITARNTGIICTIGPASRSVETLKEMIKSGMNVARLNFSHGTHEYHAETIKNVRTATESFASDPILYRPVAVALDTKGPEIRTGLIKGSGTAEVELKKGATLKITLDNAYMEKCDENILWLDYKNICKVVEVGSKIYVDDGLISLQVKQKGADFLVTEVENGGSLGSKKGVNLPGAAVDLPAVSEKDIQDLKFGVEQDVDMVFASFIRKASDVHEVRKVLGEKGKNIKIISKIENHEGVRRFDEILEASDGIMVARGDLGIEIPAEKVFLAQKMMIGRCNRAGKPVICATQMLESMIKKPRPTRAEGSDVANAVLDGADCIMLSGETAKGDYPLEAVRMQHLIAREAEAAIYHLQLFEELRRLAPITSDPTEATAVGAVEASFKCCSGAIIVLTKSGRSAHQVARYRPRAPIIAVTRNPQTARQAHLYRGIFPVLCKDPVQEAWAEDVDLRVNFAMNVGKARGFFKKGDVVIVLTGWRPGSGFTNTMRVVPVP

Only a part is listed here, and it is no random draw. Active and inactive are the calls of the source. Calls come from the whole dose curve; as a rule, active = well fitted curve in the direction sought with a large enough effect; inactive = no such curve, though single readings can be large or run the other way.

The experiment addresses Pyruvate kinase PKM (Homo sapiens) (UniProt P14618). As to the kind of experiment: qHTS for Activators of Human Muscle Isoform 2 Pyruvate Kinase: Extended Characterization Using A Lactate Dehydrogenase (LDH) Assay Probe 2. As to conditions: purified hPK-M2, LDH-coupled NADH fluorescence kinetic. From the text:
Human pyruvate kinase muscle 2 (hPK-M2)enzyme was supplied as a highly purified (>95% pure) preparation from Harvard Medical School and a secondary assay was used to evaluate compounds. This assay couples the formation of pyruvate from hPK-M2 using lactate dehydrogenase (LDH) and NADH. The depletion of NADH is followed in a fluorescent-based kinetic assay that follows the formation of pyruvate to lactate, as catalyzed LDH (described by Hannaert et al., 2002)1 Pyruvate kinase substrates, PEP and ADP, were present in the assay at 0.1 mM and 4 mM respectively. In this kinetic assay initial rates were determined by following the fluorescence of NADH depletion. NIH Chemical Genomics Center [NCGC] NIH Molecular Libraries Probe Centers Network [MLPCN] MLPCN Grant: MH085679 Assay Submitter (PI): Matthew G. Vander Heiden, Harvard Medical School
Three uL of substrate mix (final concentration, 50 mM Tris-Cl pH 8.0, 200 mM KCl, 15 mM MgCl2, 0.1 mM PEP, 4.0 mM ADP, and 0.2 mM NADH) was dispensed into black-solid 1536 well plates. 23 nL of compounds were delivered by a pin tool and 1 uL of enzyme mix (final concentrations, 10 nM hPK-M2 and 1 uM of LDH) was added. Plates were immediately placed in ViewLux (Perkin Elmer) and NADH fluorescence was determined at 30 second exposure intervals for between 3 and 6 minutes. […]
For orientation: In qHTS, concentration-response curves come from the screen itself.
For `Nc1cccc(S(=O)(=O)N2CCCN(S(=O)(=O)c3ccc4c(c3)OCCO4)CC2)c1`, the Potency is active: 91.9 nM.
